# Earlier results in paper PMC3869726, “Inhibition of Human Neutrophil Elastase by Pentacyclic Triterpenes” (PLoS ONE, 2013).
# Molecular target: T1, Human neutrophil elastase (HNE) (Homo sapiens, UniProt P08246)
# T1 construct: HNE (EC 3.4.21.37) from human leukocytes was purchased; purchased Innovative Research Company (Novi, Michigan); host or cells: human leukocytes (natural source)
# T1 sequence (P08246 30-247 limits assumed): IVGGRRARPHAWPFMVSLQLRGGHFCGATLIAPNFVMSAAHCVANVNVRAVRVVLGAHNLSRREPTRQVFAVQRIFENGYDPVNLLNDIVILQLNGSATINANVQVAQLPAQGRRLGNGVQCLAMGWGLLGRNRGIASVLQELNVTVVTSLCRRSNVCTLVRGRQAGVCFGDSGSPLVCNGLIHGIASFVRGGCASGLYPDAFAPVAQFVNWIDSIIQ
# Parameters: method as in PMID 22579959
# Details: positive control, irreversible HNE inhibitor; read-out: IC50, HNE inhibition; cited from earlier work
smiles,measurement,value
"CC(C)(C)C(=O)Oc1ccc(S(=O)(=O)Nc2ccccc2C(=O)NCC(=O)O)cc1 [ONO-5046, Sivelestat sodium hydrate, reference compound]",IC50,87 nM
